{"source": "paper PMC7273348", "about": "“Unraveling a Tangled Skein: Evolutionary Analysis of the Bacterial Gibberellin Biosynthetic Operon” (mSphere, 2020)", "target": "T1, ReIDS2 (ReGGPS2) (Rhizobium etli, UniProt Q8KLD2)", "T1 construct": "gene RHE_PD00244; full-length ORF in pET101/D-TOPO, C-terminal 6xHis tag, E. coli BL21 Star", "T1 sequence (Q8KLD2 1-309)": "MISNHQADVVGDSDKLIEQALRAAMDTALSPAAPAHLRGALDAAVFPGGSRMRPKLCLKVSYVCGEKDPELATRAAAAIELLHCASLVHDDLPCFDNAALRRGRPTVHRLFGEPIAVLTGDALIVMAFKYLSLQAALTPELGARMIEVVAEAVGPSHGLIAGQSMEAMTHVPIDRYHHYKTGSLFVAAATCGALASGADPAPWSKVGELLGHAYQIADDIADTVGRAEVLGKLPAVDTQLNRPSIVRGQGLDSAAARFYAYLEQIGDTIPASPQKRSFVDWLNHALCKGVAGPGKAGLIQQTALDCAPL", "experiment": "LC-MS/MS detection of GGPP product", "assay_type": "biochemical", "details": "50 uM IPP + 50 uM DMAPP; MOPSO pH 7.2, 10 mM MgCl2; 30 C, 2 h; main product GGPP"}
{"smiles": "C=C(C)CCOP(=O)(O)OP(=O)(O)O", "note": "[IPP]", "values": [{"measurement": "LC-MS/MS detection of GGPP product", "result": "produced GGPP as its major product from the universal isoprenoid precursors IPP and DMAPP"}]}
